Assay results as given in patent US10202345B2, “Substituted azaspiro(4.5)decane derivatives” (priority 2014, dated 2019).

The chains behind the UniProt entries cited, without tags or fusion partners.
UniProt P35372, whole entry: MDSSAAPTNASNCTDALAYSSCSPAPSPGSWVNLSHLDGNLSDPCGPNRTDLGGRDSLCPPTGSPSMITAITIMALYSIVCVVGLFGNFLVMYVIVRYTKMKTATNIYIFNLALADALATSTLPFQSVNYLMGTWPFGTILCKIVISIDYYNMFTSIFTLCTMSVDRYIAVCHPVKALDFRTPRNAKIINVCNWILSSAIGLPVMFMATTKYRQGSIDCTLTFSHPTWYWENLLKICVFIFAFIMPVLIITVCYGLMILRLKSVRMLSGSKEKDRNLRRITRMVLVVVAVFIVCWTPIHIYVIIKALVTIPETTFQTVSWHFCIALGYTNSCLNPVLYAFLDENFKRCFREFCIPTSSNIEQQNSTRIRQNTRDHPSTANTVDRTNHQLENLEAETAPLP
UniProt P41146, whole entry: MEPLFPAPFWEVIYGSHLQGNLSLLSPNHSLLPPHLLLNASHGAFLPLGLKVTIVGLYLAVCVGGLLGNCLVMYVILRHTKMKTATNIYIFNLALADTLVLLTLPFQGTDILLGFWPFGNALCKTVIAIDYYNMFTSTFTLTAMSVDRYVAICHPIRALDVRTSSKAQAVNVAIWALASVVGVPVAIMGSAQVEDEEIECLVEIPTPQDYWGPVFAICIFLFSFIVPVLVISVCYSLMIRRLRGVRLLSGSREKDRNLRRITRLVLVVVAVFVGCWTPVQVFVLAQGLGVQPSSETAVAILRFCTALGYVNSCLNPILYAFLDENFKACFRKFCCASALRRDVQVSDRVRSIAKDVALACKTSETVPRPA

How the values were obtained:
human μ opiate receptor = human μ opiate receptor (Homo sapiens, UniProt P35372); experiment: μ opiate receptor binding assay with [3H]-naloxone (WGA-SPA beads); settings: for Ki: read-out: Ki (μ) mean [μm], mean; for % inhibition (μ) [1 μM]: test concentration 1 μM
ORL1 receptor = ORL1 receptor (Homo sapiens, UniProt P41146); experiment: ORL1 receptor binding assay with 3H-nociceptin/orphanin FQ (WGA-SPA beads); settings: for Ki: read-out: Ki (ORL1) mean, mean; for % inhibition (ORL1) [1 μM]: test concentration 1 μM

SMILES	Ki (human μ opiate receptor) [nM]	% inhibition (μ) [1 μM] (human μ opiate receptor; 1 µM) [%]	Ki (ORL1 receptor) [nM]	% inhibition (ORL1) [1 μM] (ORL1 receptor; 1 µM) [%]	% inhibition (μ) [1 μM] (human μ opiate receptor) [%]	% inhibition (ORL1) [1 μM] (ORL1 receptor) [%]
CN(C)C1(c2cccs2)CCC2(CC1)CC(=O)N(CCC1COC1)C2 (single isomer, unassigned) [241]	8.75	99	15	89.5	–	–
CN(C)C1(c2ccccc2)CCC2(CCN(CC3CCOCC3)C2)CC1 (centres unmarked)	7	–	5.1	–	97.5	93
COC(C)(C)CC(=O)N1CCC2(CCC(c3ccc(F)s3)(N(C)C)CC2)C1 (centres unmarked)	2.65	–	49	–	99	72
CN(C)C1(c2cccs2)CCC2(CC1)CC(=O)N(CCC(C)(C)O)C2 (single isomer, unassigned) [222]	605	62	265	46.5	–	–
COC(C)(C)CCN1CCC2(CCC(C3CCCC3)(N(C)C)CC2)C1 (centres unmarked)	8.4	–	163	–	98	69
CN(C)C1(c2ccccc2)CCC2(CC1)CC(=O)N(CCC(C)(C)C#N)C2 (single isomer, unassigned) [230]	1.3	98.5	3.15	96.5	–	–
CN(C)C1(c2cccs2)CCC2(CC1)CC(=O)N(CCC1CC1)C2 (single isomer, unassigned) [130]	0.64	99	0.75	90.5	–	–
CCCCC1(N(C)C)CCC2(CC1)CC(=O)N(CCC1(C#N)CCC1)C2 (single isomer, unassigned) [403]	4120	23.5	–	6.5	–	–
CN(C)C1(c2ccccc2)CCC2(CC1)CC(=O)N(CCC1CCC1)C2 (single isomer, unassigned) [173]	0.61	97.5	0.32	96.5	–	–
CN(C)C1(c2cccs2)CCC2(CC1)CC(=O)N(CC1CCCC1)C2 (single isomer, unassigned) [126]	1.85	99	0.88	97	–	–
CCCC(=O)N1CCC2(CCC(c3cccs3)(N(C)C)CC2)C1 (centres unmarked) [26]	120	77.5	380	63	–	–
CN(C)C1(c2cccs2)CCC2(CC1)CC(=O)N(CCC1CCC1)C2 (single isomer, unassigned) [128]	0.34	100.5	0.42	98	–	–
CN(C)C1(Cc2ccccc2)CCC2(CCN(CC3CCCC3)C2=O)CC1 (single isomer, unassigned) [122]	670	45	–	21	–	–
CN(C)C1(c2cccs2)CCC2(CC1)CC(=O)N(CCC1(C#N)CCC1)C2 (single isomer, unassigned) [151]	29	95	22	63	–	–
CN(C)C1(c2cccs2)CCC2(CC1)CC(=O)N(CC1CCC1)C2 (single isomer, unassigned) [132]	1.4	99	0.79	91.5	–	–
CN(C)C1(c2cccs2)CCC2(CC1)CC(=O)N(CC1COC1)C2 (single isomer, unassigned) [149]	3410	54.5	785	22.5	–	–
CCCC(=O)N1CCC2(CCC(Cc3cccs3)(N(C)C)CC2)C1 (centres unmarked)	64.5	–	230	–	79.5	41.5
CCCCC1(N(C)C)CCC2(CC1)CC(=O)N(CCC1(C#N)CC1)C2 (single isomer, unassigned) [401]	2760	23	–	0	–	–
CCCCC1(N(C)C)CCC2(CC1)CC(=O)N(CCC1COC1)C2 (single isomer, unassigned) [409]	81	78.5	1270	–	–	–
CN(C)C1(c2ccccc2)CCC2(CC1)CC(=O)N(CC1(O)CCC1)C2 (single isomer, unassigned) [179]	7.5	99	6.7	93	–	–
CN(C)C1(c2cccs2)CCC2(CC1)CC(=O)N(CC(C)(C)C#N)C2 (single isomer, unassigned)	270	–	170	–	69	45.5
CN(C)C1(c2ccccc2)CCC2(CC1)CC(=O)N(CCC1(C#N)CCC1)C2 (single isomer, unassigned) [178]	18.5	96.5	39.5	82.5	–	–
CCCCC1(N(C)C)CCC2(CC1)CC(=O)N(CCC1(C#N)CCC1)C2 (single isomer, unassigned) [404]	6.3	96.5	138	52.5	–	–

SMILES	Ki (human μ opiate receptor) [nM]	% inhibition (μ) [1 μM] (human μ opiate receptor; 1 µM) [%]	Ki (ORL1 receptor) [nM]	% inhibition (ORL1) [1 μM] (ORL1 receptor; 1 µM) [%]	% inhibition (μ) [1 μM] (human μ opiate receptor) [%]	% inhibition (ORL1) [1 μM] (ORL1 receptor) [%]
Cc1ccc(C2(N(C)C)CCC3(CC2)CC(=O)N(CC2CCCC2)C3)s1 (single isomer, unassigned) [158]	0.54	100	0.56	94	–	–
CN(C)C1(c2cccs2)CCC2(CC1)CC(=O)N(CCC1CCCO1)C2 (single isomer, unassigned) [136]	1.02	100	1.35	87.5	–	–
CN(C)C1(c2cccs2)CCC2(CC1)CC(=O)N(CCC1CC1)C2 (single isomer, unassigned) [131]	1180	37	220	47	–	–
COC1(CN2CCC3(CCC(c4ccccc4)(N(C)C)CC3)C2)CC1 (centres unmarked)	11	–	11.5	–	97.5	88
CN(C)C1(c2cccs2)CCC2(CC1)CC(=O)N(CC1CCOCC1)C2 (single isomer, unassigned) [139]	3880	23	680	28.5	–	–
COC(C)CN1CC2(CCC(c3ccccc3)(N(C)C)CC2)CC1=O (centres unmarked)	9.05	–	2.75	–	98	93
CN(C)C1(c2cccs2)CCC2(CC1)CC(=O)N(CCC(C)(C)O)C2 (single isomer, unassigned) [221]	4.8	101	2	96.5	–	–
COC1(CCN2CC3(CCC(c4ccccc4)(N(C)C)CC3)CC2=O)CCC1 (single isomer, unassigned) [185]	255	60.5	104	49	–	–
CN(C)C1(c2cccs2)CCC2(CC1)CNC(=O)C2 (single isomer, unassigned) [24]	130	70	740	49.5	–	–
CN(C)C1(c2cccs2)CCC2(CC1)CC(=O)N(CCC1CCC1)C2 (single isomer, unassigned) [129]	367	51.5	22	47	–	–
COC1(CCN2CC3(CCC(c4cccs4)(N(C)C)CC3)CC2=O)CCC1 (single isomer, unassigned) [218]	–	76.5	–	50.5	–	–
CNC1(c2cccs2)CCC2(CC1)CC(=O)N(CCC1CCC1)C2 (single isomer, unassigned)	1.55	–	10.1	–	99	92
CN(C)C1(c2ccccc2)CCC2(CC1)CC(=O)N(CCC1CC1)C2 (centres unmarked) [167]	1.08	100.67	0.71	97	–	–
CCCCN1CC2(CCC(c3ccccc3)(N(C)C)CC2)CC1=O (centres unmarked) [164]	365	73	280	39	–	–
CN(C)C1(c2ccccc2)CCC2(CC1)CC(=O)N(CCC1COC1)C2 (centres unmarked) [254]	18.5	94	8.75	94.5	–	–
CN(C)C1(c2ccccc2)CCC2(CC1)CC(=O)N(CC1(O)CCC1)C2 (single isomer, unassigned) [180]	300	66.5	180	49.5	–	–
CCCCC1(N(C)C)CCC2(CC1)CC(=O)N(CCC1CCOC1)C2 (single isomer, unassigned) [400]	51.5	86	825	34	–	–
CCCCC1(N(C)C)CCC2(CC1)CC(=O)N(CCC1COC1)C2 (single isomer, unassigned) [410]	5770	20.5	–	–	–	8
CN(C)C1(c2cccs2)CCC2(CC1)CC(=O)N(CCC1COC1)C2 (single isomer, unassigned) [143]	1380	24	350	33	–	–
CN(C)C1(C2CCCC2)CCC2(CC1)CC(=O)N(CC1CCOC1)C2 (centres unmarked)	27.5	–	77.3	–	95	52.5
CN(C)C1(c2ccccc2)CCC2(CC1)CC(=O)N(CC1COC1)C2 (single isomer, unassigned) [252]	14300	37.5	300	46.5	–	–
CN(C)C1(c2cccs2)CCC2(CC1)CC(=O)N(CCC1CCOC1)C2 (single isomer, unassigned) [140]	1250	44	235	34	–	–
